Earlier results, collected in paper PMC8672735, “Computational and experimental investigation of the effect of cation structure on the solubility of anionic flow battery active-materials” (Chemical Science, 2021).

Conditions: MeCN (ϵ = 37); +4 state, [Nxxxx]2[VBH]; cited from earlier work

Tetramethylammonium vanadium(IV)-bis-hydroxyiminodiacetate [[N1111]2[VBH]]
Experimental solubility (maximum concentration of VBH in the electrolyte): 4 mM
